The text below walks through data of patent US7576222B2, “Alkynyl-containing tryptophan derivative inhibitors of TACE/matrix metalloproteinase” (priority 2004, dated 2009).

The target in this experiment is T1, recombinant human catalytic domain of MMP-13 (Homo sapiens, UniProt P45452).
T1 construct: catalytic domain of MMP-13 (165 amino acids, residues 104-268, 19 kDa)
As to the kind of experiment: biochemical. The note with it: read-out: MMP-13 Inhibition.

Broadly, the inhibition is the relative decrease from the control value, in per cent. Regarding `CC#CCOc1ccc(S(=O)(=O)NC(Cc2cn(Cc3ccc(OC)cc3)c3ccc(C)cc23)C(=O)O)cc1` (stereo not shown) [Example 47, N-{[4-(but-2-ynyloxy)phenyl]sulfonyl}-1-(4-methoxybenzyl)-5-methyltryptophan], the inhibition at 3 µM amounted to 50%.
